Measurements published in ChEMBL document CHEMBL5352499, “Differentiating Inhibition Selectivity and Binding Affinity of Isocitrate Dehydrogenase 1 Variant Inhibitors” (J Med Chem, 2023).

By UniProt entry, the sequences of proteins in these tests, tags left out.
UniProt O75874, whole entry: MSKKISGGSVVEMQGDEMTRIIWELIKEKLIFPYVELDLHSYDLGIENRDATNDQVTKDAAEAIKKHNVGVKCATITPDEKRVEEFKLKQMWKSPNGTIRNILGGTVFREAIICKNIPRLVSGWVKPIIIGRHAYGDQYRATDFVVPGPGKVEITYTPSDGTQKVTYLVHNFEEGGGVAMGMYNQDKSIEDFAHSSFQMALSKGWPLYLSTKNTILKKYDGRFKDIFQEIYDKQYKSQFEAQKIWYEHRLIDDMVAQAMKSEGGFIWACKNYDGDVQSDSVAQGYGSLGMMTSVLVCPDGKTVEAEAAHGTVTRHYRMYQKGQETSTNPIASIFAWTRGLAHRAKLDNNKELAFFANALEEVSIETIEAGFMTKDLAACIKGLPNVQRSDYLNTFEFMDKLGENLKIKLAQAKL
UniProt O75874, whole entry R132H: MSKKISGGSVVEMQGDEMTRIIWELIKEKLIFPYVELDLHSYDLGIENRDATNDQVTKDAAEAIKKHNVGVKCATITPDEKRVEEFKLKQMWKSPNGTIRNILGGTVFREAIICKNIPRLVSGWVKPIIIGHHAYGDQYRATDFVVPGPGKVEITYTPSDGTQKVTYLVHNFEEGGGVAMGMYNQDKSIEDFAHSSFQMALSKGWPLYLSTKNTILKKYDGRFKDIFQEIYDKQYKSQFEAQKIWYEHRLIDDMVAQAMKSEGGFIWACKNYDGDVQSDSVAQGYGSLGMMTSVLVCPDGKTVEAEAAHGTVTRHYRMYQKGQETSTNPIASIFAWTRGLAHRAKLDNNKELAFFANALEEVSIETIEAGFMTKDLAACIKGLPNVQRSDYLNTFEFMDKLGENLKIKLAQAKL

Key:
[1] = target: T1, Isocitrate dehydrogenase [NADP] cytoplasmic (Homo sapiens, UniProt O75874); experiment: Binding affinity to recombinant wildtype IDH1 (unknown origin) expressed in Escherichia coli BL21(DE3) pLysS cells incubated in presence of MgCl2 by NMR analysis
[2] = tested on: Isocitrate dehydrogenase [NADP] cytoplasmic (Homo sapiens), O75874 [R132H]; experiment: Binding affinity to recombinant IDH1 R132H mutant (unknown origin) expressed in Escherichia coli BL21(DE3) pLysS cells incubated in presence of MgCl2 by ITC assay
Summary of the method: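 IDH1 R132H homodimer in 50 mM tris–HCl, pH 7.5; 40 μM protein in cell (4% v/v DMSO) titrated at 25 °C with 200 or 400 μM compound (2% or 4% DMSO), 19 injections (0.4 μL, then 2.0 μL × 18, 150 s spacing), 750 rpm; thermodynamic parameters from fitted isotherm.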

[3] = tested on: Isocitrate dehydrogenase [NADP] cytoplasmic (Homo sapiens), O75874 [R132H]; experiment: Binding affinity to recombinant IDH1 R132H mutant (unknown origin) expressed in Escherichia coli BL21(DE3) pLysS cells incubated in presence of MgCl2 by NMR analysis
[4] = target: T1, Isocitrate dehydrogenase [NADP] cytoplasmic; experiment: Binding affinity to recombinant IDH1 (unknown origin) expressed in Escherichia coli BL21(DE3) pLysS cells incubated in presence of MgCl2 by ITC assay
Summary of the method: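 Homodimeric wt IDH1 in 50 mM tris–HCl, pH 7.5; cell 40 μM protein (4% v/v DMSO), titrant 200 or 400 μM compound (2% or 4% DMSO). 25 °C, stirring 750 rpm, 19 injections (0.4 μL then 18 × 2.0 μL, 150 s apart); thermodynamic parameters fitted from the heats.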

Measured: Activity

Cc1ccccc1C(C(=O)NC1CCCCC1)N(C(=O)Cn1ccnc1C)c1cccc(F)c1 (centres undefined)
active: all assays above

Active and inactive are the calls of the source.
